Screening data deposited in PubChem BioAssay by National Center for Advancing Translational Sciences (NCATS).
An excerpt weighted towards active compounds, which were near 16% of everything screened.
DT40 TDP1 CPT: DT40-hTDP1 cell growth loss with CPT; chicken DT40 Tdp1-/-;hTDP1 cells + 20 nM CPT, ATP luminescence, 48 h; Potency, µM (highest dose often 46.2 µM), without a hit: top-dose activity change, negative = growth inhibition, usual class: inhibitors; actives 12% (n = 420,000); AID 686979; also: potency is read from the fitted curve at half-maximal effect; % is scaled to controls: 0 for no effect and ±100 for the full control effect; nearly all actives have a fitted effect of over 55% in size
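Chicken DT40 Tdp1-/- cells complemented with human TDP1, 400 cells/well, exposed to compounds plus 20 nM camptothecin for at least 48 h at 37 C; viability read as ATP content by CellTiter-Glo luminescence.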
TDP1 inh: TDP1 (human) enzyme inhibition; Potency, µM (doses to about 130 µM), for the others: at the highest dose activity change, negative = inhibition, most hits filed as inhibitors; recombinant TDP1, AlphaScreen DNA substrate cleavage; AID 485290; Q9NUW8; actives 0.28% (n = 350,000); also: potency is read from the fitted curve at half-maximal effect; % is scaled to controls: 0 for no effect and ±100 for the full control effect; nearly all actives have a fitted effect of over 40% in size
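Signal: AlphaScreen proximity between streptavidin donor and anti-FITC acceptor beads on intact substrate. Reaction: Tdp1 1 nM, substrate 15 nM final, 5 min RT after 15 min compound preincubation.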
miR-21 reporter: miR-21 reporter, rising signal | HeLa miR-21 FLuc reporter, luciferase, 48 h | Potency, µM (doses to about 38.3 µM), inactives show at the top dose reporter change, positive = more light | 340,000 tested, under 10 active | AID 2288; active = well fitted rising curve with a large enough effect; inconclusive = small, poorly fitted or top-dose-only effect; inactive = no such curve, though single readings can be large or run the other way;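 note: % of control where 0% means no effect; miR-21 action dims this reporter so a rising signal means less miR-21 action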
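HeLa cells endogenously expressing miR-21, stably carrying CMV-driven firefly luciferase with a downstream miR-21 binding site, 2000 cells/well. Titrations up to approximately 40 uM, 48 hours; luciferase luminescence read.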
TDP1 cell noCPT: qHTS for Inhibitors of human tyrosyl-DNA phosphodiesterase 1 (TDP1): qHTS in cells in absence of CPT. actives 15% (n = 420,000). DT40 Tdp1-/- hTDP1 cells, no CPT, ATP luminescence, 48 h. AID 686978, 2013. Potency, µM (highest dose often 46.2 µM), inactives show at the highest dose activity change, negative = growth inhibition, most hits filed as inhibitors; also: potency is read from the fitted curve at half-maximal effect; % is scaled to controls: 0 for no effect and ±100 for the full control effect; nearly all actives have a fitted effect of over 55% in size
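Compound effects on proliferation are scored in DT40 Tdp1-/-;hTDP1 cells in the absence of CPT. ATP levels (CellTiter-Glo luminescence) are recorded after a ≥48 hr, 37 °C incubation.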
uPA surface inh: blocks generation of uPA at the cell surface | cell surface uPA generation assay, qHTS | Potency, µM (highest dose often 38.3 µM), inactives show at the highest dose activity change, negative = inhibition, usual class: inhibitors | actives 0.31% (n = 330,000) | AID 540303; active = well fitted inhibition curve with a large enough effect; inconclusive = small, poorly fitted or top-dose-only effect; inactive = no such curve, though single readings can be large or run the other way; tested in mouse RAW 264.7 cells; also: potency is read from the fitted curve at half-maximal effect; % is scaled to controls: 0 for no effect and ±100 for the full control effect; nearly all actives have a fitted effect of over 55% in size
* = called active by the depositor; ? = inconclusive; / = no result given; [ ] = dose if it differs, or a comment. Unless noted, calls follow the shape of the dose curve; as a rule, active = well fitted curve in the direction sought with a large enough effect; inconclusive = small, poorly fitted or top-dose-only effect, or another doubt; inactive = no such curve, though single readings can be large; an effect the other way counts as inactive or inconclusive.

Values run as follows: DT40 TDP1 CPT, TDP1 inh, miR-21 reporter, TDP1 cell noCPT, uPA surface inh
O=S(=O)(c1cccs1)N1CCN(CC(O)COc2cccc(Br)c2)CC1 (centres undefined)
→ 21µM*, 1%, 15%, ?, -5%
COc1ccc(/C=C2/SC(=S)N(CCCC(=O)N3CCN(C)CC3)C2=O)cc1
→ ?, 10%, 26%, 21µM*, -7%
COc1ccc(/C=C2\SC(=S)N(CC(=O)N3CCN(C)CC3)C2=O)cc1
→ ?, 4%, 0%, 21µM*, -7%
COc1ccc(-c2cc3c(=O)n(CC(=O)N4CCN(C)CC4)ncn3n2)cc1
→ 21µM*, /, -4%, -27%, ?
COc1ccc(-c2cc3c(=O)n(CC(=O)N4CCCCC4)ncn3n2)cc1
→ -19%, -15%, -10%, 5%, -3%
COC(=O)C(C)Oc1ccc2cc(-c3ccccc3)c(=O)oc2c1 (centres undefined)
→ 6%, 0%, -18%, 3%, 0%
CSc1ccc(C#N)cc1NC(=O)c1ccccc1
→ -1%, 5%, -5%, -4%, 10%
O=c1c(CCc2ccccc2)nc2cnc(N3CCOCC3)nc2n1-c1ccccc1
→ -15%, /, /, 21%, /
COc1ccc(NC(=O)C2CC(=O)N(c3ccccc3Cl)C2)c(OC)c1 (centres undefined)
→ -22%, 2%, 11%, -8%, 0%
CCc1ccc(N2CC(C(=O)Nc3ccccc3N3CCCC3)CC2=O)cc1 (centres undefined)
→ 12µM*, /, /, 12µM*, /
COc1ccc(C)cc1N1CC(C(=O)Nc2ccccc2N2CCCCC2)CC1=O (centres undefined)
→ ?, 0%, /, 21µM*, 6%
COc1ccc(N2CC(C(=O)Nc3ccccc3N3CCCC3)CC2=O)c(OC)c1 (centres undefined)
→ 2.9µM*, -9%, /, 4.6µM*, ?
Cc1ccc(CN2CC(C(=O)Nc3ccccc3N3CCCC3)CC2=O)cc1 (centres undefined)
→ -1%, -8%, /, -20%, 7%
COc1ccc(N2CC(C(=O)Nc3cc(C(F)(F)F)ccc3N3CCCC3)CC2=O)c(OC)c1 (centres undefined)
→ ?, -4%, /, 23µM*, -12%
CCc1ccc(N2CC(C(=O)Nc3ccccc3F)CC2=O)cc1 (centres undefined)
→ -13%, 0%, -9%, -2%, 8%
Cc1ccc(N(CC(=O)Nc2ccc(C)cc2C)S(=O)(=O)N2CCCC2)cc1
→ -27%, 0%, 6%, ?, /
COc1ccccc1CN1CCCC2(CCN(C(=O)c3csnn3)CC2)C1
→ 4%, /, /, -7%, /
N#Cc1c(NC(=O)CSc2ncccn2)oc(-c2ccccc2)c1-c1ccccc1
→ -7%, /, /, -13%, -4%
COc1ccc(-c2oc(NC(=O)CSc3ncn[nH]3)c(C#N)c2-c2ccc(OC)cc2)cc1
→ 13µM*, 12%, 17%, ?, /
COc1ccc(-c2oc(NC(=O)CCl)c(C#N)c2-c2ccc(OC)cc2)cc1
→ 6.5µM*, 9%, ?, 5.2µM*, -6%
COc1ccccc1OCC(=O)Nc1oc(-c2ccccc2)c(-c2ccccc2)c1C#N
→ -1%, 3%, 1%, -20%, 0%
Cc1ccc(OCC(=O)Nc2oc(-c3ccccc3)c(-c3ccccc3)c2C#N)cc1
→ 21µM*, /, /, 16µM*, 2%
COc1cc(NC(=O)COCc2cc(-c3ccc(F)cc3)on2)cc(OC)c1OC
→ 13µM*, 0%, 25%, 9.2µM*, /
N#Cc1c(-c2ccccc2)cc(-c2ccccc2)nc1SCC(O)CS(=O)(=O)Cc1ccc(Cl)cc1 (centres undefined)
→ 8.2µM*, 1%[12.3 µM], 9%, 3.3µM*, /
COc1ccc(-c2[nH]ncc2CN2CCN(c3ccc(F)cc3)CC2)cc1
→ -19%, 9%, -1%, -37%, 9%
COc1ccc(-c2[nH]ncc2CN2CCC(O)(c3ccc(Cl)cc3)CC2)cc1
→ ?, 9%, 20%, 10µM*, -2%
Fc1ccc(-c2[nH]ncc2CN2CCN(c3ccc(F)cc3)CC2)cc1
→ -26%, 2%, 6%, ?, 8%
OC1(c2ccc(Cl)cc2)CCN(Cc2cn[nH]c2-c2ccccc2)CC1
→ 16µM*, 9%, 10%, 15µM*, 3%
OC1(c2ccc(Cl)cc2)CCN(Cc2cn[nH]c2-c2ccc(F)cc2)CC1
→ 13µM*, 0%, 14%, 4.1µM*, -1%
O=C(CN1CCCCCC1)Nc1ccccc1Cl
→ -7%, /, -4%, -16%, 1%

Going on with the list:
Letter code – A = DT40 TDP1 CPT; B = TDP1 inh; C = miR-21 reporter; D = TDP1 cell noCPT; E = uPA surface inh
> COc1ccc(-c2c(C#N)sc(C(N)=O)c2-c2ccc(OC)cc2)cc1
  A: ?	B: 5%	C: 14%	D: 10µM*	E: -18%

> N#Cc1sc(C(N)=O)c(-c2ccccc2)c1-c1ccccc1
  A: -28%	B: 0%	C: -3%	D: -27%	E: -1%

> COCc1ccc(C(=O)N2CCCC(Nc3ccc(C(C)C)cc3)C2)s1 (centres undefined)
  A: ?	B: 3%[56.1 µM]	C: 18%	D: ?	E: 11%

> CC1CN(C(=O)c2ccc(COc3ccc(C(C)C)cc3)o2)CC(C)O1 (centres undefined)
  A: 16µM*	B: -7%	C: -39%	D: 21µM*	E: ?

> CC(C)c1ccc(NC2CCCN(C(=O)c3n[nH]c4c3CCC4)C2)cc1 (centres undefined)
  A: 18µM*	B: 5%	C: 19%	D: ?	E: 2%

> CC1CN(C(=O)c2ccc(COc3ccc4ccccc4c3)o2)CC(C)O1 (centres undefined)
  A: ?	B: -10%	C: -36%	D: ?	E: -48%

> COCc1ccc(C(=O)N2CCCC(Nc3ccc(C(C)C)cc3)C2)o1 (centres undefined)
  A: ?	B: 8%	C: 7%	D: 18µM*	E: 2%

> CC(C)c1ccc(NC2CCCN(C(=O)c3ccsc3)C2)cc1 (centres undefined)
  A: 23µM*	B: 5%	C: -6%	D: 18µM*	E: -2%

> CCNC(=S)NS(=O)(=O)c1ccc(Cl)cc1
  A: -10%	B: -3%	C: 1%	D: -8%	E: -3%

> COc1ccc(NC2CCCN(C(=O)c3cccs3)C2)cc1 (centres undefined)
  A: -20%	B: 5%	C: -12%	D: -9%	E: -4%

An excerpt of these results, in markdown.
| SMILES | DT40 TDP1 CPT | TDP1 inh | miR-21 reporter | TDP1 cell noCPT | uPA surface inh |
| --- | --- | --- | --- | --- | --- |
| CC1CN(C(=O)c2ccc(COc3ccc(C(C)C)cc3)o2)CC(C)O1 (centres undefined) | 16µM* | -7% | -39% | 21µM* | ? |
| CC(C)c1ccc(NC2CCCN(C(=O)c3n[nH]c4c3CCC4)C2)cc1 (centres undefined) | 18µM* | 5% | 19% | ? | 2% |
| CC1CN(C(=O)c2ccc(COc3ccc4ccccc4c3)o2)CC(C)O1 (centres undefined) | ? | -10% | -36% | ? | -48% |
| COCc1ccc(C(=O)N2CCCC(Nc3ccc(C(C)C)cc3)C2)o1 (centres undefined) | ? | 8% | 7% | 18µM* | 2% |

Additional records:
Letter code – A = DT40 TDP1 CPT; B = TDP1 inh; C = miR-21 reporter; D = TDP1 cell noCPT; E = uPA surface inh
> O=C(c1ccco1)N1CCCC(c2ccccc2)C1 (centres undefined)
  A: -1%	B: 4%	C: -13%	D: -28%	E: -8%

> CC(C)c1ccc(NC2CCCN(C(=O)c3cccs3)C2)cc1 (centres undefined)
  A: 21µM*	B: 12%	C: -3%	D: ?	E: -1%

> O=C(c1cccs1)N1CCCC(c2ccccc2)C1 (centres undefined)
  A: 0%	B: 0%	C: -12%	D: 18µM*	E: -3%

> Cc1ccc(NC(=O)c2cc3c(=O)[nH]c4ccccc4c3n2C)cc1F
  A: ?	B: 5%	C: -10%	D: -26%	E: /

> COc1ccc(-c2nc(CC(=O)O)cs2)cc1OC
  A: /	B: -2%	C: -13%	D: /	E: /
